# Data from article PMC9646673, “A Novel, Orally Bioavailable, Small-Molecule Inhibitor of PCSK9 With Significant Cholesterol-Lowering Properties In Vivo” (Journal of Lipid Research, 2022).
# Assays:
# APOE∗3-Leiden.CETP mice [1] = test: Second efficacy study (35 days, with atorvastatin): plasma lipids; format: in vivo, mouse; conditions: day 35; NYX-PCSK9i 50 mg/kg BID PO, atorvastatin 4.9 mg/kg/day diet admix
# Text: Animal experiments were approved by the governmental central committee on animal experiments (AVD5010020172064) and TNO’s animal welfare body (TNO-471 and TNO-482). Female APOE∗3-Leiden.CETP transgenic mice (11–16 weeks of age) were bred at the animal facility of TNO-InnoSer (Leiden, The Netherlands). Female animals were used in this study as they are more responsive to dietary cholesterol and fat than males and therefore typically develop atherosclerosis more rapidly than male APOE∗3-Leiden and APOE∗3-Leiden.CETP mice on cholesterol-containing diets ([33], [34]). […] Body weight, food intake, and clinical signs of behavior were monitored throughout the studies. […]
# In both studies, blood samples were collected at weekly intervals via tail vein sampling after fasting the mice for 4 h. […] Total plasma cholesterol levels were determined using a Cholesterol CHOD-PAP kit according to the manufacturer’s instructions. Plasma HDL-C levels were determined by first precipitating apoB-containing lipids using PEG 6000/glycine and then utilizing the Cholesterol CHOD-PAP kit ([35]). Non-HDL-C levels were determined by subtracting HDL-C levels from total cholesterol levels ([32]). Group-pooled lipoprotein profiles were determined by FPLC analysis using an AKTApurifier 10 FPLC system (GE Healthcare, Chicago, IL). […]
# APOE∗3-Leiden.CETP mice [2] = test: Second efficacy study: body weight, food intake, plasma ALT and AST; format: in vivo, mouse; set-up: unit not given here; conditions: NYX-PCSK9i 50 mg/kg BID PO, atorvastatin 4.9 mg/kg/day
# Text: Animal experiments were approved by the governmental central committee on animal experiments (AVD5010020172064) and TNO’s animal welfare body (TNO-471 and TNO-482). Female APOE∗3-Leiden.CETP transgenic mice (11–16 weeks of age) were bred at the animal facility of TNO-InnoSer (Leiden, The Netherlands). Female animals were used in this study as they are more responsive to dietary cholesterol and fat than males and therefore typically develop atherosclerosis more rapidly than male APOE∗3-Leiden and APOE∗3-Leiden.CETP mice on cholesterol-containing diets ([33], [34]). Although measurements of atherosclerosis were not included as part of the present study, females were used with the prospect in mind that atherosclerosis studies will follow. The mice were housed under standard conditions that included 12 h light-dark cycles and access to a WTD and sterilized tap water ad libitum. Body weight, food intake, and clinical signs of behavior were monitored throughout the studies. Mice were fed a semisynthetic WTD [containing 15% saturated fat and 0.15% cholesterol (w/w)]) for a run-in period of 3 weeks, after which mice were matched into groups based on age, body weight, plasma total cholesterol, and triglyceride levels. Time t = 0 (weeks) was designated as the time at which mice were matched into groups after the 3-week run-in period in each efficacy study.
# In both studies, blood samples were collected at weekly intervals via tail vein sampling after fasting the mice for 4 h. Blood samples were centrifugated (4500 g at 4°C), and the plasma was collected for the following analyses. Total plasma cholesterol levels were determined using a Cholesterol CHOD-PAP kit according to the manufacturer’s instructions. Plasma HDL-C levels were determined by first precipitating apoB-containing lipids using PEG 6000/glycine and then utilizing the Cholesterol CHOD-PAP kit ([35]). Non-HDL-C levels were determined by subtracting HDL-C levels from total cholesterol levels ([32]). Group-pooled lipoprotein profiles were determined by FPLC analysis using an AKTApurifier 10 FPLC system (GE Healthcare, Chicago, IL). Plasma PCSK9 levels were determined using a Mouse PCSK9 Quantikine ELISA kit as per the manufacturer’s protocol. ALT and AST levels of group-pooled samples were measured using the Roche Reflotron Plus System (Mannheim, Germany).
compound,measurement,setting,value
"CC(C)c1c(C(=O)Nc2ccccc2)c(-c2ccccc2)c(-c2ccc(F)cc2)n1CC[C@@H](O)C[C@@H](O)CC(=O)O [atorvastatin, reference compound]",reduction in plasma total cholesterol relative to vehicle,APOE∗3-Leiden.CETP mice [1],27%
same,Body weight (mean ± SD),APOE∗3-Leiden.CETP mice [2]; day 7,22.1 ± 0.8
same,Body weight (mean ± SD),APOE∗3-Leiden.CETP mice [2]; day 14,22.3 ± 0.9
same,Body weight (mean ± SD),APOE∗3-Leiden.CETP mice [2]; day 21,22.1 ± 0.9
same,Body weight (mean ± SD),APOE∗3-Leiden.CETP mice [2]; day 35,22.2 ± 1.3
